Results reported in patent publication US20190117653A1, “SYSTEMS AND METHODS FOR TREATING BACTERIAL INFECTION” (priority 2016, published 2019).

Tested on: QTc interval
Assay: ASSIST-1 and ASSIST-2 Phase III trials, QTc safety
Settings: ASSIST-1 and ASSIST-2 treatment arms; iclaprim 0.8 mg/kg over 0.5 hours q12h 7 to 10 days

## CC(=O)NC[C@H]1CN(c2ccc(N3CCOCC3)c(F)c2)C(=O)O1 [linezolid]
  adverse events related to QTc prolongation: 2 cases
